Assays:
[1] = system: pERK in NCI-H2122 cells (KRAS-G12C); experiment: Phospho-ERK inhibition (AlphaLISA), NCI-H2122; conditions: for NCI-H2122 pERK % Ymin: NCI-H2122, value in parentheses; for IC50: read-out: NCI-H2122 pERK IC50, NCI-H2122
Procedure: (§1) All cancer cell lines (A375, A101D, A2058, RKO, HT29 SK-MEL 30, IPC298, HepG2, HCT-116, Lovo, SWV620, SW480, NCI-H358, NCI-H2122, Calu-6, NCIH2087, NCIH1755, NCIH1666 and Mewo) were obtained from ATCC and cultured in RPMI-1640 medium (Gibco) supplemented with 5% heat inactivated fetal bovine serum (FBS, Wisent) at 37° C. under 5% CO2. Cells were maintained in T175 flasks (Greiner). They were passaged by removing the culture medium, washing once in 10 mL of room temperature Phosphate Buffered Saline (PBS; Wisent) and incubating at 37° C. with 2 mL of 0.05% Trypsin (Thermo-Fisher). Trypsin was then inactivated by adding complete growth medium and the cells were then replated in a T175 culture dish at the appropriate dilution. All cell lines were routinely tested for mycoplasma contamination. Tissue type and mutational status of each cell line can be found in Table B.
(§2) AlphaLISA® SureFire® Ultra™ p-ERK 1/2 (Thr202/Tyr204) analysis was conducted on cells plated in 100 μL of complete RPMI-1640 growth medium in 96-well flat-bottomed transparent dishes (Costar) at a density indicated in Table C. Cells were maintained overnight at 37° C. under 5% CO2 before treatment with compounds' dilution series for one hour. The cell density in cells/cm^2 corresponds to cell number divided by the area of one well of a 96-well plate ([…]).
(§3) In a dilution series 100 μL/well of test substance dilution prepared in complete RPMI-1640 growth media was added to the cells. The dilution series is selected so that ten concentrations cover a range from 10 μM to 0.33 nM. If necessary the initial concentration of 10 μM is increased to 100 μM or lowered to 1 μM (as in the case of A375 and H1666 cells, which are generally more sensitive to the compounds) and further dilution is carried out accordingly. The final concentration of DMSO in the assay is set at 0.5%.
(§4) After treatment, media was removed and cells were lysed in 50 μL of 1× AlphaScreen Ultra Lysis Buffer (Perkin Elmer). The AlphaLISA® SureFire® Ultra™ p-ERK 1/2 (Thr202/Tyr2O4) (PerkinElmer) reactions were performed with 5 μL of cell lysate according to the manufacturer's specifications in 384-well proxyplates (Perkin Elmer) followed by overnight incubation of the reactions at room temperature in a humidified chamber. After completion of the reactions, the signals were recorded on an EnVision plate reader (Perkin Elmer) using built in AlphaLISA® settings.
(§5) The effect of each compound dilution on the pERK signal was expressed in % inhibition and calculated as follows. An internal 100% inhibition control (1 M trametinib, cat #HY-10999; MedChem Express; CAS #871700-17-3) was included in each plate and used as a measure of pERK background. First, the value obtained for trametinib was subtracted from each data point. The average of DMSO (vehicle) controls (set as 0% inhibition) was established and used to calculate % inhibition: % inhibition=100*(1-((pERK signalcompound)/(pERK signalDMSO)))
(§6) The ability of each compound to inhibit pERK signal was expressed as an IC50 value obtained by plotting the inhibition values for each data point of a dilution series and fitting the obtained curves using a log(agonist) versus response-variable slope (four parameters) function using GraphPadPrism (V7.0) or Dotmatics Screening Ultra platform.
(§7) When present, paradoxical pERK induction is inferred from the negative % inhibition values observed in the pERK IC50 curves of a compound.

[2] = system: HCT-116 cells (KRAS G13D); experiment: Proliferation inhibition (CellTiter-Glo), HCT116; conditions: read-out: HCT116 Prolif. EC50; HCT116, 3 days
Procedure: as §1
(§8) CellTiter-Glo® viability analysis was conducted on cells plated in 100 μL of complete RPMI-1640 growth medium in 96-well flat-bottomed white opaque plates (Greiner or Croning) at a density indicated in Table E (for each CCL, number of cells plated per well of a 96-well plate to perform the CellTiter-Glo® cell viability assay). The cell density in cells/cm^2 would correspond to cell number divided by the area of one well of a 96-well plate (0.32 cm^2). Cells were maintained overnight at 37° C. under 5% CO2 before treatment with compounds' dilution series for 3 days.
(§9) In a dilution series 100 μL/well of test substance dilution prepared in complete RPMI-1640 growth media was added to the cells plated initially in 100 μL of growth media. The dilution series is selected so that ten concentrations cover a range from 10 μM to 0.33 nM. If necessary (as in the case of A375 cells, which were more sensitive to the compounds) the initial concentration of 10 μM is lowered to 1 μM and further dilution is carried out accordingly. The final concentration of DMSO in the assay is set at is 0.5%.
(§10) After 3 days of incubation, the growth media were removed by aspiration and 60 μL of diluted CellTiter-Glo® reagent (10 μL CellTiter-Glo® reagent+50 μL of PBS) was added to each well. Cells were allowed to lyse and to equilibrate in CellTiter-Glo® reagent by 5 min incubation on a plate shaker followed by 10 min incubation at room temperature. Luminescence signals were then acquired on a Synergy Neo2 plate reader (Biotek).
as §5, with “proliferation of cancer cell lines” for “pERK signal”, “μM of trametinib;” for “M trametinib,”, “CellTiter-Glo® signal” for “pERK”, “The” for “First, the”, “inhibition=100*(1−((CellTiter-Glo® signalcompound)/(CellTiter-Glo®” for “inhibition=100*(1-((pERK signalcompound)/(pERK”
as §6, with “proliferation” for “pERK signal”, “a EC50” for “an IC50”, “effect” for “inhibition”

[3] = system: pERK in SW620 cells (KRAS-G12V); experiment: Phospho-ERK inhibition (AlphaLISA), SW620; conditions: for SW620 pERK % Ymin: SW620, value in parentheses; for IC50: read-out: SW620 pERK IC50, SW620
Procedure: as §1, §2, §3, §4, §5, §6, §7

[4] = system: pERK in HepG2 cells (NRAS-Q61L); experiment: Phospho-ERK inhibition (AlphaLISA), HepG2; conditions: for HepG2 pERK % Ymin: HepG2, value in parentheses; for IC50: read-out: HepG2 pERK IC50, HepG2
Procedure: as §1, §2, §3, §4, §5, §6, §7

A375 cells (BRAF V600E) = experiment: Proliferation inhibition (CellTiter-Glo), A375; conditions: read-out: A375 Prolif. EC50; A375, 3 days
Procedure: as §1, §8, §9, §10
as §5, with “proliferation of cancer cell lines” for “pERK signal”, “μM of trametinib;” for “M trametinib,”, “CellTiter-Glo® signal” for “pERK”, “The” for “First, the”, “inhibition=100*(1−((CellTiter-Glo® signalcompound)/(CellTiter-Glo®” for “inhibition=100*(1-((pERK signalcompound)/(pERK”
as §6, with “proliferation” for “pERK signal”, “a EC50” for “an IC50”, “effect” for “inhibition”

RKO cells (BRAF V600E) = experiment: Proliferation inhibition (CellTiter-Glo), RKO; conditions: read-out: RKO Prolif. EC50, 3 days
Procedure: as §1, §8, §9, §10
as §5, with “proliferation of cancer cell lines” for “pERK signal”, “μM of trametinib;” for “M trametinib,”, “CellTiter-Glo® signal” for “pERK”, “The” for “First, the”, “inhibition=100*(1−((CellTiter-Glo® signalcompound)/(CellTiter-Glo®” for “inhibition=100*(1-((pERK signalcompound)/(pERK”
as §6, with “proliferation” for “pERK signal”, “a EC50” for “an IC50”, “effect” for “inhibition”

SMILES	NCI-H2122 pERK % Ymin [1] [%]	IC50 [1] [nM]	EC50 [2] [nM]	SW620 pERK % Ymin [3] [%]	IC50 [3] [nM]	HepG2 pERK % Ymin [4] [%]	IC50 [4] [nM]	EC50 (A375 cells (BRAF V600E)) [nM]	EC50 (RKO cells (BRAF V600E)) [nM]
O=S(=O)(CCCN1CCOCC1)c1cn(-c2ccc3ncnc(Nc4c(F)ccc(NS(=O)(=O)c5cccc(Cl)c5Cl)c4F)c3n2)c2ccccc12	−3	30 to 300	< 30	−12	30 to 300	9	30 to 300	< 30	< 30
Cc1c(Cl)cccc1S(=O)(=O)Nc1ccc(F)c(Nc2ncnc3ccc(-n4cc(C(=O)N5CCN(C)CC5)c5ccccc54)nc23)c1F	5	30 to 300	300 to 3000	3	30 to 300	7	30 to 300	< 30	< 30
CS(=O)(=O)C1CCN(c2cccc3c2nnn3-c2ccc3ncnc(Nc4c(F)ccc(NS(=O)(=O)c5cccc(Cl)c5Cl)c4F)c3n2)CC1	24	30 to 300	< 30	6	30 to 300	4	30 to 300	< 30	< 30
Cc1c(F)cccc1S(=O)(=O)Nc1ccc(F)c(Nc2ncnc3ccc(-n4cnc5c(-c6cccnc6)cccc54)nc23)c1F	3	30 to 300	< 30	−12	30 to 300	7	30 to 300	< 30	< 30
Cc1c(Cl)csc1S(=O)(=O)Nc1ccc(F)c(Nc2ncnc3ccc(-n4cc(S(=O)(=O)N(C)CCN(C)C)c5ccccc54)nc23)c1F	−18	> 300	< 30	−5	30 to 300	1	30 to 300	< 30	< 30
O=S(=O)(Nc1ccc(F)c(Nc2ncnc3ccc(-n4cnc5c(N6CCC7(CCCC7)CC6)cccc54)nc23)c1F)c1cccc(Cl)c1Cl	30	30 to 300	< 30	3	30 to 300	20	< 30	< 30	< 30
COCCOc1cccc2c1nnn2-c1ccc2ncnc(Nc3c(F)ccc(NS(=O)(=O)c4cccc(Cl)c4Cl)c3F)c2n1	2	30 to 300	< 30	29	30 to 300	26	< 30	< 30	< 30
